# Literature values, collected in patent US20180177872A1, “Combination of PD-1 antagonist with an EGFR inhibitor” (priority 2015, published 2018).
# System: EGFR mutants (L858R, ex19del and T790M)
# Conditions: Jia et al, Cancer Res 2014; cited from earlier work
structure (smiles),measurement,value
"Cc1cc(C(=O)Nc2nc3cccc(Cl)c3n2[C@@H]2CCCCN(C(=O)/C=C/CN(C)C)C2)ccn1 [Compound A, (R,E)-N-(7-chloro-1-(1-(4-(dimethylamino)but-2-enoyl)azepan-3-yl)-1Hbenzo[d]imidazol-2-yl)-2-methylisonicotinamide]",selectivity for EGFR mutants over WT EGFR,"selectively inhibits activating and acquired resistance mutants (L858R, ex19del and T790M), while sparing WT EGFR"
